According to US20090022663A1:

Target: purified recombinant 161P2F10B extracellular domain (Tag5-161P2F10B ECD, amino acids 46-875) (human) (UniProt O14638)
Assay: SPR (BIAcore), MAb captured on chip, recombinant 161P2F10B injected, 1:1 fit

“H16-7.200 (antibody; modification not given)” gave a Kd of 9 nM, a koff of 0.00059 s⁻¹ and a kon of 65000 M⁻¹ s⁻¹.
